Data reported in patent US9284283B2, “Macrocyclic compounds for modulating IL-17” (ENSEMBLE THERAPEUTICS CORPORATION, priority 2012, dated 2016).

Amino acid sequences for entries named in this document (tags omitted). Residues count along the entry.
UniProt Q16552, 24-155 limits assumed: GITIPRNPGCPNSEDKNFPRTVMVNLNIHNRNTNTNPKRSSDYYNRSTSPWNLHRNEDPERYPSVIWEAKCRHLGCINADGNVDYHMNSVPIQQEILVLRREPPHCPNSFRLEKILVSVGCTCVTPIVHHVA

Columns and labels:
[1] = tested on: IL-17A induced secretion of IL-6 in primary human RASF cells; assay: Inhibition of IL17A induced secretion of IL6 in human rheumatoid arthritis synovial fibroblast (RASF) cells; conditions: read-out: RASF
Experimental: This assay was used to determine the extent of inhibition of IL-17A induced secretion of IL-6 in primary human rheumatoid synovial fibroblast (RASF) cells by compounds of the invention. IL-17A is known to stimulate IL-6 production in RASF cells.
Low passage (passage 2-8) Primary human RASF cells (Asterand) were maintained in maintenance medium. Cells were detached from flasks by tryptic digestion and the cell density of the suspension determined. To each well of a 96 well culture plate was added 100 μL of seeding medium containing 50,000 cells/mL and the plate incubated overnight in a humidified 37° C., 5% CO2 incubator. The medium was replaced with fresh assay medium and cells were incubated for additional 5 hours in a humidified 37° C., 5% CO2 incubator prior to stimulation with recombinant human IL-17A (“rhIL-17A”). Prior to addition to cells, rhIL-17A (30 ng/mL) in assay medium was incubated with either DMSO alone, compounds, or anti-IL17 receptor antibody (3 μg/mL) for 1 hour at 37° C. The final concentration of DMSO in all samples was 0.25%. The final concentration of compounds varied from 0.03 μM to 25 μM.
Immediately before stimulation, cells were washed once with fresh assay medium. Then, 100 μL of the test samples was added in triplicate wells and the plates incubated for 20 hours in a humidified 37° C., 5% CO2 incubator. The assay medium from each well was collected and the IL-6 concentration in cell culture supernatants was determined by ELISA either immediately or after storage at −20° C.
A water-soluble tetrazolium salt (WST1) viability assay was immediately performed on the cells after the conditioned medium was collected using a WST1 reagent purchased from Roche. The concentration of IL-6 obtained from ELISA was normalized by the WST1 data.

[2] = tested on: IL-17-induced GROα secretion from HT-29 cells; assay: HT-29 cellular assay (IL-17-induced GROα secretion); conditions: read-out: HT-29
Experimental: To test the ability of a compound of the invention to neutralize or antagonize IL-17 bioactivity, the following cell-based assay was used. IL-17 can stimulate epithelial cells and other cells to secrete GROα. The ability of a compound of the invention to neutralize IL-17-induced GROα secretion from the human colorectal adenocarcinoma epithelial cell line HT-29 is tested in this assay.
HT-29 cells (human colorectal adenocarcinoma epithelial cells, ATCC #HTB-38), were maintained in culture/assay medium in tissue culture-treated flasks using standard techniques. HT-29 cells were grown in tissue culture flasks until they were 50-80% confluent on the day before the assay. The day before the assay, the cells were detached from the culture flasks with trypsin+EDTA. The trypsin was inactivated with complete assay medium. […]
At the end of the incubation, the plates are centrifuged (500×g for 5 minutes at room temperature), and the cell culture media is transferred to polypropylene 96-well plates. […] GROα levels are measured with a GROα sandwich ELISA (R+D Systems DuoSet #DY275E), as per the manufacturer's instructions. […] GROα is detected using biotinylated goat anti-human GROα (R+D Systems BAF275) at 200 ng/mL using TMB as a substrate. At the end of the ELISA reactions, plates are read at 450 nm on a microplate reader and compared to a standard calibration curve.

IL17A = IL17A (Homo sapiens, UniProt Q16552); assay: Surface Plasmon Resonance (SPR) analysis of compound interactions with IL17A; conditions: read-out: SPR; SPR binding to IL17A
Experimental: SPR analysis was carried out with a GE Healthcare (Piscataway, N.J.) Biacore X100 system. Typically, the chip (NTA Biacore Biosensor chip; GE Healthcare BR-1000-34) was first conditioned by injection of 0.35 M EDTA, which also served to remove any immobilized proteins from previous runs. Before immobilization of the recombinant 6-His-tagged IL17, the chip was washed with 0.5 mM nickel chloride in NTA buffer (10 mM HEPES buffer, 0.15 M sodium chloride, 10 μM ethylene diamine tetraacetic acid, 0.005% v/v surfactant P20 (GE Healthcare BR-1000-54)) to form a nickel chelate on the chip. IL17 protein was immobilized onto a NTA chip through its 6-His tag. IL17A was typically injected at 0.25 μM for 60-120 seconds, followed by a stabilization step washing with NTA+0.5% DMSO for 120 seconds or longer.
Five 2-fold or 3-fold serial dilutions of test compound were injected serially onto the chip. […] The rate of refractive index change (RU units/time) and the maximum extend of RU change was measured during the “on” phase of analyte injection, followed by measuring the rate during the “off” phase.
Kinetic parameter fits were conducted using the Biacore SPR Evaluation Program (GE Healthcare) for 1:1 molecular binding fits, after subtracting the baseline average of 2 or more runs in which no analyte was injected. […] Typically, the Kd value calculated through both means agreed within a factor of three. […]

IC50 [2]: < 1000 nM
Kd (IL17A): < 100 nM
Structure (SMILES): O=C1CNC(=O)[C@@H](Cc2ccc(NC(=O)[C@H](Cc3ccccc3Cl)NC(=O)Cc3ccccc3)cc2)NC(=O)CC2(CCCC2)CC(=O)N[C@H](C(=O)O)CCCCN1
IC50 [1]: 1000 to 10000 nM
